Tested on: iHeps in iMPCCs

Model predictions iMPCC (binary decision): −
SMILES: Cn1cc[nH]c1=S [Methimazole]
